# Measured affinities in a library of Ab-14 heavy chain variants

The measurements come from Li et al. 2023 (doi:10.1038/s41467-023-39022-2) through the FLAb antibody collection.

The target is the same throughout: PDVDLGDISGINAS, from the HR2 region of SARS-CoV-2 spike.

Parent scFv Ab-14: VH joined to VL by the linker GGGGSGGGGSGGGGS. Changes lie in the heavy chain CDRs alone.
VH: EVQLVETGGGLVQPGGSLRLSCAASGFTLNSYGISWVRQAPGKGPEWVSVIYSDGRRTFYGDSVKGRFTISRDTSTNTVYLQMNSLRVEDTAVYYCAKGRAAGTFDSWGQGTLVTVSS
VL: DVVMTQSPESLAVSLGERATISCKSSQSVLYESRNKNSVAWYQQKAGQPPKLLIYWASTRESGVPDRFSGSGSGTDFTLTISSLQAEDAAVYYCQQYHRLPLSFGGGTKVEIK

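Phage display of a naive human antibody library on the peptide gave the parent. These sequences belong to a second round, designed from the earlier measurements on random variants of the parent. Several design methods are mixed in this list. In AlphaSeq, yeast of one mating type display the scFv and yeast of the other type display the target. After mating in shaken culture at 30 °C for 16 h, diploids were selected and their barcode pairs sequenced. Scores were corrected for input abundance and mapped to Kd with protein pairs of known affinity run in the same pool. Each pool was mated in six replicate cultures.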

Variants are written as CDR1, CDR2 and CDR3 of the heavy chain (limits as in the source). Parent: GFTLNSYGIS, VIYSDGRRTFYGDSVK, GRAAGTFDS.
Values are log10 of the apparent Kd in nM; lower means stronger binding.
Averages over replicates are reported, and they cover detected replicates only.
An entry "no signal" has no value in the source: the pair was not observed among the diploids in any replicate. This suggests poor binding but is not conclusive.
The authors averaged sequences with at least three values out of six and counted those with two or fewer as poor binders.
Background: pairings of all heavy chain designs with three empty control strains gave a value in 1% of cases (median 2.08, 5th percentile 0.84). Values in that range, when seen in few replicates, are hard to tell from nonspecific mating. The control count says in how many pairings with the empty strains this scFv gave a signal.
Of ten entries with the parent sequence, four were seen in most replicates (averages 0.34 to 2.37), three in one and three in none, so single entries are noisy.
Where one sequence has several entries in the source, the replicates are pooled.
Values of this round are not directly comparable with the first-round values of the same sequences.

CDR-H1,CDR-H2,CDR-H3,"mean, log10 nM",replicates with signal,empty controls
GFNLNEYGIS,VIYADGMRTFYTDSVK,GETAGTFII,no signal,0 of 6,0 of 18
GADIEEYGIS,VIYADGVRKYYVNSFK,GEMAGTFTL,no signal,0 of 6,0 of 18
GFNLNSYGIS,VIYSDGRRTFYGDSVK,GKEAGTFDS,0.47,6 of 6,0 of 18
GFTLNSYGIS,VIYSDGRRTFYHDSVK,GQAAGAKNS,no signal,0 of 6,0 of 18
KFTLESYGIS,VIYSDGRRTFYGDSVK,GKIAGTFDS,1.84,5 of 6,0 of 18
GTTLNSYGIS,VIYSDGRKNFYGDSVK,GRAAGTFDS,no signal,0 of 6,0 of 18
GFTLNSYGIS,VIYSDGQRTFYSDDVK,GREAGTFDT,-0.21,6 of 6,0 of 18
GFDLDEYGIS,VIYADGMRTAYSDSVK,GKNAGTFDV,0.03,6 of 6,0 of 18
GFELNSYGIS,VIYSDGRRTFYVDSVK,GRVAGTFDS,1.08,5 of 6,0 of 18
GFELNSYGIS,VIYSDGRRTFYSDSVK,GRAAGTFDS,0.24,6 of 6,1 of 18
GFTLNSYGIS,VIYFDGERTFYDDSVK,GRAAGCFDS,no signal,0 of 6,0 of 18
GFDLNEYGIS,VIYADGQRTAYADDVK,GTNAGTFDV,-0.31,6 of 6,2 of 18
GFSLNSYGIS,VIYSDGRRTFYADMVK,GKAAGTFDS,no signal,0 of 6,0 of 18
GFTLDSYGIS,VIYSDGKRTFYGDSVK,GRTAGTFDS,1.06,6 of 6,1 of 18
GFALNSYGIS,VIYSDGRRTFYGDSVK,GQAAGTFDL,0.93,6 of 6,0 of 18
GFKLNEYGIS,VIYSDGRRTQYGDSVK,GRAAGTFDS,0.79,4 of 6,0 of 18
GFTLNSYGIS,VIYSDGRRTFYGDSVK,GRSAGTWDS,1.38,1 of 6,0 of 18
GYNLNSYGIS,VIYSDGRRTMYGDSVK,GRAAGTFDS,no signal,0 of 6,0 of 18
GFTLNSYGIS,VIYSDGRRTFYIDSVK,GRIAGTFDS,1.46,4 of 12,0 of 36
GFDLNEYGIS,VIYADGRRTAYADSVK,GTVAGTFDV,-0.41,6 of 6,0 of 18
GFTLNSYGIS,VIYSDGKRTFYGDSVK,GRVAGTFDF,no signal,0 of 6,0 of 18
GFDLNEYGIS,VIYADGRRTFYADSVK,GTNAGTFDV,-0.06,6 of 6,0 of 18
GFTLNSYGRS,VIYADGRRTFYQDSVK,GRAAGTFDM,no signal,0 of 6,1 of 18
GVNLDEYGIS,VIYADGVRQHYADSVK,GMHGDFGVV,-0.33,6 of 6,1 of 18
GFVLNSYGIS,VIYADGRRTFYGDSVK,GREAGTFDS,0.73,6 of 6,0 of 18
GFTLNEYGIS,VIYSDGRRTMYQDSVK,GRCAGTFDS,1.82,3 of 6,0 of 18
YFSLNDYGIS,VIYSDGRRTFYMDSVK,GRTAGTFDS,1.93,1 of 6,1 of 18
SFCFNSYGIS,VIYWDGMRLFYEDSVK,GRAAGWFNS,no signal,0 of 6,0 of 18
GFDLDEYGIS,VIYADGMRTAYADSVK,GENAGTFVQ,-0.66,6 of 6,0 of 18
GFTLNSYGIS,VIYSDGRRTHYGDSVK,GRAALTFDT,no signal,0 of 6,0 of 18
GFDLNEYGIS,VIYADGSRTAYSDSVK,GQVAGTFDV,-0.49,6 of 6,0 of 18
GFDLDEYGIS,VIYADGMRTAYADNVK,GENAGTFDT,-0.22,6 of 6,0 of 18
GDTLNSYGIS,VIYSDGRRTFYTDSVK,GDVAGTFSS,0.63,6 of 6,0 of 18
GFCLNDYGIS,VIYSDGRRTYYIDSVK,GRAAGTFDS,no signal,0 of 6,0 of 18
GFDLEEYGIS,VIYADGRRVAYSDRVK,GIDVYGKVM,no signal,0 of 6,0 of 18
GFDLNSYGIS,VIYSDGRRTFYVDSVK,GRTAGTFDS,-0.07,6 of 6,1 of 18
GFNLDEYGIS,VIYADGRRTFYADNVK,GEVAGTFDI,-0.56,6 of 6,1 of 18
GFTLNSYGIS,VMYSDGRRTFYGQSVK,SRAAGTADS,no signal,0 of 6,0 of 18
GFTLNEYGIS,VIYSDGRRTFYGDSVK,GRTAGTFFS,no signal,0 of 6,0 of 18
GFGLDEYGIS,VIYADGMRANYATNVK,GYQAGVFST,no signal,0 of 6,0 of 18
GFDLNDYGIS,VIYSDGRRTFYGDSVK,GRIAGTFDS,no signal,0 of 6,0 of 18
GFTLNSYGIS,VIYSDGRRTRYGDSVK,GRNAGTFDL,no signal,0 of 6,0 of 18
GFELNSYGIS,VIYSDGRRTFYSDSVK,GKAAGTFDT,0.14,6 of 6,0 of 18
GETLNSYGIS,VIYSDGRRTFYGDSVK,GTAAGTFDL,no signal,0 of 6,0 of 18
GFNLNSYGIS,VIYSDGRRTFYADQVK,GNAAGTFDS,0.70,6 of 6,0 of 18
GFDLDEYGIS,VIYADGKRTFYADSVK,GTNAGTFDV,0.00,3 of 6,0 of 18
GFSLNEYGIS,VIYSDGRRTFYGDSVK,GRAADTFDQ,3.39,3 of 6,0 of 18
GFTLNDYGIS,VIYSDGRRTFYGDSVK,GRTAGTFNS,1.42,4 of 6,0 of 18
GFTLNDYGIS,VIYSDGRRTMYIDSVK,GNAAGTFDS,no signal,0 of 6,0 of 18
GFTLNDYGIS,VIYSDGRRTFYGDSVK,GRATGTFDS,no signal,0 of 6,0 of 18

Excerpt, the first 8 entries:

CDR-H1,CDR-H2,CDR-H3,"mean, log10 nM",replicates with signal,empty controls
GFNLNEYGIS,VIYADGMRTFYTDSVK,GETAGTFII,no signal,0 of 6,0 of 18
GADIEEYGIS,VIYADGVRKYYVNSFK,GEMAGTFTL,no signal,0 of 6,0 of 18
GFNLNSYGIS,VIYSDGRRTFYGDSVK,GKEAGTFDS,0.47,6 of 6,0 of 18
GFTLNSYGIS,VIYSDGRRTFYHDSVK,GQAAGAKNS,no signal,0 of 6,0 of 18
KFTLESYGIS,VIYSDGRRTFYGDSVK,GKIAGTFDS,1.84,5 of 6,0 of 18
GTTLNSYGIS,VIYSDGRKNFYGDSVK,GRAAGTFDS,no signal,0 of 6,0 of 18
GFTLNSYGIS,VIYSDGQRTFYSDDVK,GREAGTFDT,-0.21,6 of 6,0 of 18
GFDLDEYGIS,VIYADGMRTAYSDSVK,GKNAGTFDV,0.03,6 of 6,0 of 18